Test results as given in publication PMC12712897, “Development of New IL-1R Antagonists with Improved Anti-inflammatory Efficacy” (Theranostics, 2026).

Assays:
[1] = target: T1, type I interleukin-1 receptor (UniProt P14778 18-336, fluorescently labeled (in the MST assay only)); test: MST; fluorescently labeled IL-1R1 titrated with serially diluted IL-1Ra variants and IL-1β; Monolith NT.115-pico; conditions: both partners purified
T1 construct: type I interleukin-1 receptor (IL-1R1); Probably a soluble His-tagged extracellular domain of human IL-1R1 (surmised); The details are said to be in the Supplementary Methods; also called IL-1R1; IL-1R
T1 sequence (looked up): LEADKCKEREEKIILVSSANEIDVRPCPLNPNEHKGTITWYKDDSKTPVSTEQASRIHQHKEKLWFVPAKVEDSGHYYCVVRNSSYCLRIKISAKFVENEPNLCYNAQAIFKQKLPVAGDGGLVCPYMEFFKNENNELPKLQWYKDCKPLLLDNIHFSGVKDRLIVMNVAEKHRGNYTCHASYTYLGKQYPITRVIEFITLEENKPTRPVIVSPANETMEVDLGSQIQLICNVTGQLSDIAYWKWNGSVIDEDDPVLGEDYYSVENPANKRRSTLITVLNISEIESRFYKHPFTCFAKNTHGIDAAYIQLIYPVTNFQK

[2] = target: T1, type I interleukin-1 receptor; test: SPR; IL-1R1 captured on a CM5 chip via a His Capture Kit; various concentrations of IL-1Ra variants and IL-1β flowed as analytes; Biacore T200; conditions: both partners purified

B1: wild-type recombinant human interleukin-1 receptor antagonist (iPT hIL-1Ra WT) (natural protein)
chain: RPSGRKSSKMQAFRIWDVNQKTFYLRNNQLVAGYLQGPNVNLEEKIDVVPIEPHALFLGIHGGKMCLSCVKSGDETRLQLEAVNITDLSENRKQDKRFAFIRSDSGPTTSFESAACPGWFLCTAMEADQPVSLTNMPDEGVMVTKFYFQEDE
notes: interleukin-1 receptor antagonist (IL-1Ra), human, recombinant form (rhIL-1Ra); It was cloned in pET21a between NdeI and XhoI, and no tag is named; also called WT IL-1Ra; rhIL-1Ra; source: E. coli BL21(DE3) RIL, purified (HiTrap Q ion exchange, Superdex 75 SEC)
For B1, which Kd [1] is on record?
Its Kd is 3.79 nM.

And the Kd [2]?
The Kd was 0.264 nM.
